This note sets out measurements from paper PMC9623235 (Clinical Cancer Research, 2022).

This test deals with MDA-MB-436 BRCA1m TNBC xenograft. Kind of test: MDA-MB-436 BRCA1m TNBC xenograft efficacy. The following applies: 100 mg/kg daily; MDA-MB-436 and HBCx-17 models.

As to `O=C(c1cc(Cc2n[nH]c(=O)c3ccccc23)ccc1F)N1CCN(C(=O)C2CC2)CC1` [olaparib], the “Time to some tumor regrowth after treatment withdrawal” value is recorded as “about 8 weeks”.
